Assay results taken from US20250179484A1.

Target: MG64-1 Cas12k effector expressed with an N-terminal Twin Strep tag, an HRV3C protease site and a C-terminal 2xNLS tag
Test: mass spectrometry of tryptic peptides from the SEC-eluted Cas12k pulldown complex; emPAI is a relative measure of abundance

Work on “small prokaryotic ribosomal protein subunit S15 (from UniProt P0ADZ4 2-89)” yielded an emPAI of 0.46.
